Source: PubChem BioAssay (Tox21)
Only a part is listed here, and it is no random draw. Records with an inconclusive call do not appear. Calls of active or inactive are those of the source. Unless noted, calls come from the whole dose curve; as a rule, active = well fitted curve in the direction sought with a large enough effect in the repeat runs; inconclusive = weak or mixed curves; inactive = no such curve, though single readings can be large; an effect the other way counts as inactive or inconclusive.

The chains behind the UniProt entries cited, without tags or fusion partners. Where a name states a change or a piece, a line headed by the entry shows the natural chain unless it says otherwise.
UniProt P04150: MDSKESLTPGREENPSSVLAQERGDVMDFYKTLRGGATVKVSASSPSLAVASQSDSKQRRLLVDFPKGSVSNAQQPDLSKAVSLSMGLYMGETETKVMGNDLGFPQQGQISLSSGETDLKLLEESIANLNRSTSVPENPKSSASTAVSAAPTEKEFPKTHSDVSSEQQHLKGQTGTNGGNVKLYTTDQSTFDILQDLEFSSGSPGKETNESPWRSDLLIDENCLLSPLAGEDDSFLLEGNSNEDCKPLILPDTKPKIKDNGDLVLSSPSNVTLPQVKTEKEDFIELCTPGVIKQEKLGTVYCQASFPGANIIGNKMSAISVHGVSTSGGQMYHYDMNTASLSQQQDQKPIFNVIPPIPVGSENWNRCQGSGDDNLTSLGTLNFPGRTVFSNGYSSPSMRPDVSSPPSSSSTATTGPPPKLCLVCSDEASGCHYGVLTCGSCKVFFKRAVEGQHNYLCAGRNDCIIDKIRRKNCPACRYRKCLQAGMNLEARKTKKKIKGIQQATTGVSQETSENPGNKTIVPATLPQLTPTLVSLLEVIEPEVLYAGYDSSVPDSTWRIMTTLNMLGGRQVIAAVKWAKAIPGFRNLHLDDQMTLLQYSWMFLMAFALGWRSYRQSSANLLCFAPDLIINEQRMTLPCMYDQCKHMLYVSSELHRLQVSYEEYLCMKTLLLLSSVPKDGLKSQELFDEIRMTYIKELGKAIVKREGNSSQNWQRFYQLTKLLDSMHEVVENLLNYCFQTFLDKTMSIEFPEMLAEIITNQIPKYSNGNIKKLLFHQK

Key:
[1] = qHTS assay for small molecules that induce genotoxicity in human embryonic kidney cells expressing luciferase-tagged ATAD5 (AID 651632); conditions: HEK293T ATAD5-luciferase induction, 16 h; at 83.3 µM (top of the series) unless noted; note: nearly all actives have a fitted effect of over 15% in size
How it was run: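 Luminescence read-out: after 16 hr compound exposure at 37C, ATAD5-luciferase HEK293T cells received Amplite, 30 min RT, then CCD imaging. A rise in signal marks genotoxic stress.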

[2] = qHTS assay for small molecule agonists of the p53 signaling pathway - cell viability (AID 651633; calls by dose curve;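 note: p53RE-bla HCT reporter cells with a stable beta-lactamase p53 reporter; nearly all actives have a fitted effect of over 30% in size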); conditions: p53RE-bla HCT-116 viability, ATP luminescence, 16 h; at 83.3 µM (top of the series) unless noted
How it was run: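 Viability counter-read: CellTiter-Glo luminescence (30 min, room temperature) in the same p53RE-bla plates. These plates had been exposed to compounds for 16 h at 37 C.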

[3] = qHTS assay for small molecules that induce genotoxicity in human embryonic kidney cells expressing luciferase-tagged ATAD5 - cell viability (AID 651634; calls by dose curve; note: nearly all actives have a fitted effect of over 25% in size)
How it was run: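 HEK293T ATAD5-luc cells, 2,000/well; compound 15.5 hr, 37C/5% CO2; CellTiter-Fluor 30 min, 37C; fluorescence read.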

[4] = qHTS assay for small molecule disruptors of the mitochondrial membrane potential (AID 720635)
[5] = qHTS assay to test for compound auto fluorescence at 535 nm (green) in HepG2 cells (AID 720675); conditions: green autofluorescence 485/535 nm, 1 h; at 91.3 µM (top of the series) unless noted
[6] = qHTS assay to test for compound auto fluorescence at 460 nm (blue) in HEK293 cells (AID 720678); conditions: blue autofluorescence 405/460 nm; at 91.3 µM (top of the series) unless noted
How it was run: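 Blue-channel (Ex/Em 405/460 nm) intensity measured in HEK293 cultures after overnight compound exposure at 37C; signal expressed relative to triamterene. Cells plated 2,000 per well in 10% dialyzed FBS medium and allowed 4-5 hr to attach.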

[7] = qHTS assay to test for compound auto fluorescence at 590 nm (red) in HEK293 cells (AID 720679); conditions: red autofluorescence 540/590 nm; at 91.3 µM (top of the series) unless noted
How it was run: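 Red-channel autofluorescence (Ex/Em 540/590 nm; Rose Bengal sodium reference) was measured after overnight 37C, 5% CO2 exposure of attached HEK293 cells, 2,000 per well in medium with 10% dialyzed FBS.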

[8] = qHTS assay to test for compound auto fluorescence at 535 nm (green) in HEK293 cells (AID 720680); conditions: green autofluorescence 485/535 nm; at 91.3 µM (top of the series) unless noted
[9] = qHTS assay to test for compound auto fluorescence at 460 nm (blue) in HEK293 cell free culture (AID 720681); conditions: cell-free medium, autofluorescence 405/460 nm (blue); at 91.3 µM (top of the series) unless noted
How it was run: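 Blue fluorescence (Ex 405/Em 460 nm, triamterene-equivalent) was read immediately after pin transfer of compound or DMSO into medium (DMEM, 10% FBS) without cells.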

[10] = qHTS assay to test for compound auto fluorescence at 535 nm (green) in HEK293 cell free culture (AID 720682); conditions: cell-free medium, green autofluorescence 485/535 nm, stronger effect = higher value; at 91.3 µM (top of the series) unless noted
How it was run: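 Intrinsic compound fluorescence is measured in culture medium containing 10% FBS, with excitation at 485 nm and detection at 535 nm, referenced to fluorescein.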

[11] = qHTS assay to test for compound auto fluorescence at 590 nm (red) in HEK293 cell free culture (AID 720683); conditions: cell-free medium autofluorescence, Ex540/Em590 red; at 91.3 µM (top of the series) unless noted
How it was run: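 Red-channel autofluorescence of compounds in culture medium (DMEM, 10% FBS), no cells, measured at 540/590 nm. Rose Bengal sodium is the reference fluorophore for equivalence.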

[12] = qHTS assay to test for compound auto fluorescence at 590 nm (red) in HepG2 cell free culture (AID 720684); conditions: cell-free medium autofluorescence, red 540/590 nm; at 91.3 µM (top of the series) unless noted
[13] = qHTS assay to test for compound auto fluorescence at 460 nm (blue) in HepG2 cell free culture (AID 720685); conditions: Cell-free culture medium, blue autofluorescence 405/460 nm; at 91.3 µM (top of the series) unless noted
How it was run: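 Cell-free plates of MEM plus 10% FBS received 23 nL compound or DMSO vehicle; blue-channel (405/460 nm) intensity scored against triamterene as reference fluorophore.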

[14] = qHTS assay to test for compound auto fluorescence at 535 nm (green) in HepG2 cell free culture (AID 720686); conditions: Cell-free medium, green autofluorescence 485/535 nm; at 91.3 µM (top of the series) unless noted
[15] = molecular target: Glucocorticoid receptor (Homo sapiens) (UniProt P04150); assay: qHTS assay to identify small molecule agonists of the glucocorticoid receptor (GR) signaling pathway (AID 720691; active = well fitted activation curve with a large enough effect in the signal ratio in the repeat runs, not every such curve was filed as active; the % refers to the signal ratio); conditions: GR-bla HeLa, beta-lactamase reporter ratio, 18 h; at 62.4 µM (top of the series) unless noted
[16] = molecular target: Glucocorticoid receptor (Homo sapiens) (UniProt P04150); assay: qHTS assay to identify small molecule antagonists of the glucocorticoid receptor (GR) signaling pathway (AID 720692; active = well fitted inhibition curve with a large enough effect in the signal ratio in the repeat runs, not every such curve was filed as active; the % refers to the signal ratio); conditions: GR-bla HeLa, beta-lactamase FRET ratio, dexamethasone-stimulated, 18 h; at 58.5 µM (top of the series) unless noted
[17] = qHTS assay to identify small molecule antagonists of the glucocorticoid receptor (GR) signaling pathway - cell viability counter screen (AID 720693); note: nearly all actives have a fitted effect of over 55% in size
[18] = qHTS assay for identifying genotoxic compounds that show differential cytotoxicity against isogenic chicken DT40 cell lines with known DNA damage response pathways - Rev3 mutant cell line (AID 743014); note: nearly all actives have a fitted effect of over 55% in size; note: potency is the fitted concentration of half-maximal effect
[19] = qHTS assay for identifying genotoxic compounds that show differential cytotoxicity against isogenic chicken DT40 cell lines with known DNA damage response pathways - Rad54/Ku70 mutant cell line (AID 743015); note: nearly all actives have a fitted effect of over 60% in size; note: potency is the fitted concentration of half-maximal effect
[20] = qHTS assay for identifying genotoxic compounds that show differential cytotoxicity against isogenic chicken DT40 cell lines with known DNA damage response pathways - wild type cell line (AID 743012); note: nearly all actives have a fitted effect of over 60% in size; note: potency is the fitted concentration of half-maximal effect
How it was run: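 CellTiter-Glo luminescence readout of viability in wild type DT40 cells after 40 h compound exposure at 37 C/5% CO2; 300 cells/well; reagent incubated 30 min at room temperature before reading.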
% is set by controls: 0 for no effect and ±100 for the full control effect.

CCCCC(CC)CO[P+](=O)OCC(CC)CCCC (stereo not given)
inactive: activation [1] 2.54% | activity change, negative = cytotoxicity [2] 17.3% | Potency [3] | Potency [4] | fluorescence, % of fluorescein control [5] -0.0242% | fluorescence, % of triamterene [6] 0.0368% | fluorescence, % of fluorescent control [7] -0.0304% | fluorescence, % of fluorescein [8] 0.0122% | fluorescence, % of fluorescent control [9] -0.0171% | activity change [10] -0.0039% | fluorescence, % of fluorescent control [11] -0.0035% | fluorescence, % of Rose Bengal [12] -0.131% | fluorescence, % of fluorescent control [13] 0.311% | fluorescence, % of fluorescein control [14] -0.0248% | activation [15] -0.0822% | activity change, negative = inhibition [16] -3.2% | Potency [17] | Potency [18] | Potency [19]

O=P(Cl)(Cl)c1ccccc1
inactive: activation [1] 4.45% | activity change, negative = cytotoxicity [2] 20.3% | Potency [3] | Potency [4] | fluorescence, % of fluorescein control [5] 0.0048% | fluorescence, % of triamterene [6] -0.0086% | fluorescence, % of fluorescent control [7] -0.522% | fluorescence, % of fluorescein [8] 0.0615% | fluorescence, % of fluorescent control [9] -0.0016% | activity change [10] 0.0578% | fluorescence, % of fluorescent control [11] -0.0722% | fluorescence, % of Rose Bengal [12] -0.0973% | fluorescence, % of fluorescent control [13] 0.0454% | fluorescence, % of fluorescein control [14] 0.0247% | activation [15] 2.08% | Potency [17] | Potency [20] | Potency [18] | Potency [19]

CC(C)CCCCCCCOP(OCCCCCCCC(C)C)Oc1ccccc1
inactive: activation [1] 2.45% | activity change, negative = cytotoxicity [2] -15% | Potency [3] | fluorescence, % of fluorescein control [5] -0.0113% | fluorescence, % of triamterene [6] 0.158% | fluorescence, % of fluorescent control [7] 0.0377% | fluorescence, % of fluorescein [8] -0.129% | fluorescence, % of fluorescent control [9] -0.249% | activity change [10] -0.0339% | fluorescence, % of fluorescent control [11] -0.158% | fluorescence, % of Rose Bengal [12] -0.0683% | fluorescence, % of fluorescent control [13] -0.166% | fluorescence, % of fluorescein control [14] 0.0803% | activation [15] -1.35% | activity change, negative = inhibition [16] -20.2% | Potency [17] | Potency [20] | Potency [18]

CN(C(=O)Cc1ccc(Cl)c(Cl)c1)[C@H]1CC[C@@]2(CCCO2)C[C@@H]1N1CCCC1
inactive: activation [1] -2.81% | activity change, negative = cytotoxicity [2] 12% | Potency [3] | Potency [4] | fluorescence, % of fluorescein control [5] 0.203% [at 46 µM] | fluorescence, % of triamterene [6] 0.025% [at 46 µM] | fluorescence, % of fluorescent control [7] -0.183% [at 46 µM] | fluorescence, % of fluorescein [8] 0.0277% [at 46 µM] | fluorescence, % of fluorescent control [9] 0.165% [at 46 µM] | activity change [10] 0.12% [at 46 µM] | fluorescence, % of fluorescent control [11] -0.145% [at 46 µM] | fluorescence, % of Rose Bengal [12] -0.276% [at 46 µM] | fluorescence, % of fluorescent control [13] -0.0205% [at 46 µM] | fluorescence, % of fluorescein control [14] -0.0526% [at 46 µM] | activation [15] -12.8%
active: Potency [20] 16.8 µM | Potency [18] 21.1 µM

O=C(OC1CN2CCC1CC2)c1ccccc1 (stereo not given)
inactive: activation [1] 1.65% | activity change, negative = cytotoxicity [2] 20.5% | Potency [3] | Potency [4] | fluorescence, % of fluorescein control [5] -0.017% [at 46 µM] | fluorescence, % of triamterene [6] -0.0293% [at 46 µM] | fluorescence, % of fluorescent control [7] 0.135% [at 46 µM] | fluorescence, % of fluorescein [8] 0.0549% [at 46 µM] | fluorescence, % of fluorescent control [9] -0.22% [at 46 µM] | activity change [10] 0.0402% [at 46 µM] | fluorescence, % of fluorescent control [11] -0.554% [at 46 µM] | fluorescence, % of Rose Bengal [12] -0.0942% [at 46 µM] | fluorescence, % of fluorescent control [13] 0.0533% [at 46 µM] | fluorescence, % of fluorescein control [14] 0.0275% [at 46 µM] | Potency [17] | Potency [20] | Potency [18] | Potency [19]

CCNC(C)Cc1ccc2c(c1)OCO2 (stereo not given)
active: Potency [18] 5.84 µM | Potency [19] 18.5 µM
inactive: activation [1] 3.4% [at 95.3 µM] | activity change, negative = cytotoxicity [2] 24.6% [at 95.3 µM] | Potency [3] | Potency [4] | fluorescence, % of fluorescein control [5] 0.0123% [at 95.7 µM] | fluorescence, % of triamterene [6] -0.0733% [at 95.7 µM] | fluorescence, % of fluorescent control [7] 0% [at 95.7 µM] | fluorescence, % of fluorescein [8] -0.0147% [at 95.7 µM] | fluorescence, % of fluorescent control [9] 0.111% [at 95.7 µM] | activity change [10] -0.0076% [at 95.7 µM] | fluorescence, % of fluorescent control [11] 0.425% [at 95.7 µM] | fluorescence, % of Rose Bengal [12] 0.0116% [at 95.7 µM] | fluorescence, % of fluorescent control [13] -0.0151% [at 95.7 µM] | fluorescence, % of fluorescein control [14] 0.0009% [at 95.7 µM] | activation [15] 5.91% [at 79.2 µM] | activity change, negative = inhibition [16] -3.8% [at 78.9 µM] | Potency [17]
